The text below walks through data of ChEMBL document CHEMBL4715826, “Selective PPARδ Modulators Improve Mitochondrial Function: Potential Treatment for Duchenne Muscular Dystrophy (DMD)” (ACS Med Chem Lett, 2018).

For assay [1], the target named is Peroxisome proliferator-activated receptor delta (Homo sapiens) (UniProt Q03181). The assay can be described thus: Modulator activity at PPARdelta in human primary myoblasts derived from DMD patient assessed as upregulation of ANGPTL4 gene expression measured after 48 hrs. The following applies: Primary myotube, filed as modulator, dose 0.04-40 nM.
Assay [2] has the same target. The assay can be described thus: Modulator activity at PPARdelta in human primary myoblasts derived from DMD patient assessed as upregulation of CPT1a gene expression measured after 48 hrs. The conditions noted are these: Primary myotube, filed as modulator.
For assay [3] the target is unchanged. The assay can be described thus: Modulator activity at PPARdelta in human primary myoblasts derived from DMD patient assessed as upregulation of PDK4 gene expression at 40 nM measured after 48 hrs. The following applies: Primary myotube, filed as modulator.
For assay [4] the target is unchanged. The assay can be described thus: Modulator activity at PPARdelta in human primary myoblasts derived from DMD patient assessed as upregulation of PDK4 gene expression measured after 48 hrs. The conditions noted are these: Primary myotube, filed as modulator, dose 0.04-40 nM.
Assay [5] shares this target. The assay can be described thus: Modulator activity at PPARdelta in human primary myoblasts derived from DMD patient assessed as increase in palmitic acid oxidation at 1.2 to 12 nM measured after 48 hrs by Seahorse assay. The following applies: Primary myotube, filed as modulator, dose 1.2-12 nM.
Assay [6] has as its target T1, Peroxisome proliferator-activated receptor delta (Mus musculus) (UniProt P35396).
T1 sequence (whole entry): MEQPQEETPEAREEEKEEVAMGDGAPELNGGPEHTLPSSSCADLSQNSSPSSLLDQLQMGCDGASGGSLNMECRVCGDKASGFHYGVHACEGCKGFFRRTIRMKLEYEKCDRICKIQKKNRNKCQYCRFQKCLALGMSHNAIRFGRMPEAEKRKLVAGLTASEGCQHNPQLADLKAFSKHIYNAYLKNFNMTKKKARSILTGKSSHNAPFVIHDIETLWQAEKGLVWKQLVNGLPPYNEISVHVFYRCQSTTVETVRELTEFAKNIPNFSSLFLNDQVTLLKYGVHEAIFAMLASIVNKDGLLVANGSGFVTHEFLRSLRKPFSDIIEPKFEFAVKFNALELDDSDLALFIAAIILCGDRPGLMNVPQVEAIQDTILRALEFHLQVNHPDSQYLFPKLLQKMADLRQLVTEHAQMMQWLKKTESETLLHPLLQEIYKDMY
The assay can be described thus: Modulator activity at PPARdelta in mouse primary myoblasts derived from DMD patient assessed as upregulation of ANGPTL4 gene expression at 40 nM measured after 48 hrs. In kind it is tissue-based. The following applies: Primary myotube, filed as modulator.

Assay [7] has as its target T1, Peroxisome proliferator-activated receptor delta (Mus musculus). Put plainly: Modulator activity at PPARdelta in mouse primary myoblasts derived from DMD patient assessed as upregulation of ANGPTL4 gene expression at 4 nM measured after 48 hrs. In kind it is tissue-based. The conditions noted are these: Primary myotube, filed as modulator.
For assay [8], the target named is Peroxisome proliferator-activated receptor delta (Homo sapiens) (UniProt Q03181). The assay can be described thus: Modulator activity at PPARdelta in human primary myoblasts derived from DMD patient assessed as upregulation of PDK4 gene expression at 4 nM measured after 48 hrs. The following applies: Primary myotube, filed as modulator.

A value given as a limit tells only on which side of the number the result lay.

`Cc1cnc(-c2ccc(OC(F)(F)F)cc2)n1Cc1ccccc1OCCC[C@@H](C)CC(=O)O`: the Activity result is “Dose-dependent effect” in assay [1]; “Dose-dependent effect” in assay [2]; 146% in assay [3]; “Dose-dependent effect” in assay [4]; less than 52% in assay [5]; 143% in assay [6]. Further, the Activity in assay [7] is 143%; in assay [8], 144%.
